PubChem BioAssay AID2107 (National Center for Advancing Translational Sciences (NCATS), 2009)
Values joined by “and” are separate entries in the source; they are usually repeats but may differ in a detail not shown here. Equal values may be shown once. This is a selection; strong and weak results do not stand in their true shares. Active and inactive are the calls of the source. Calls follow the shape of the dose curve; as a rule, active = well fitted inhibition curve with a large enough effect; inconclusive = small, poorly fitted or top-dose-only effect, or effect the other way; inactive = flat fitted curve, though single readings scatter.

Sequences of proteins named here, by UniProt entry; tags and fusion partners are left off. A change or cut given only in a name is not applied to a line headed by its entry.
UniProt P06280: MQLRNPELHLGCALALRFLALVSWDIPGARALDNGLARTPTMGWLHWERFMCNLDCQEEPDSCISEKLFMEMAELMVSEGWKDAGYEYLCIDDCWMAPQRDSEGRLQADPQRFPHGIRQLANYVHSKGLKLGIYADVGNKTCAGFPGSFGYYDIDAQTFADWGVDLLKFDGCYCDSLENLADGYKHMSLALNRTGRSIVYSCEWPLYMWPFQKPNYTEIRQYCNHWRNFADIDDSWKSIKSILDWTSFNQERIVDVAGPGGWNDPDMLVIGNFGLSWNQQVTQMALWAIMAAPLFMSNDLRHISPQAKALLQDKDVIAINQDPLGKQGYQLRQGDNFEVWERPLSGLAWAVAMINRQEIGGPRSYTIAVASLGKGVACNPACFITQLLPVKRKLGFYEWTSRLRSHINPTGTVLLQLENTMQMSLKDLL

Target: Alpha-galactosidase A (Homo sapiens) (UniProt P06280)
Experiment: qHTS Assay for Inhibitors and Activators of Human alpha-Galactosidase From Spleen Homogenate;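 also: 0% = enzyme with vehicle and -100% = no enzyme basal signal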
Settings: 4MU-alpha-Gal fluorescence, 40 min; at 80 µM (top of the series) unless noted
Excerpt: NIH Chemical Genomics Center [NCGC] NIH Molecular Libraries Probe Production Centers Network [MLPCN] MLPCN Grant: R03 MH084842-01 Assay Submitter (PI): Wei Zheng NCGC Assay Overview: Alpha-galactosidase is a homodimeric glycoprotein that hydrolyzes the terminal alpha-galactosyl moieties from glycolipids and glycoproteins. Deficiency of this enzyme results in Fabry Disease with progressive accumulation of globotriaosylceramide and other glycosphingolipids in vascular endothelial cells that causes renal failure, myocardial infarction and stroke, and premature death in patients. It has been reported that the improper folding and trafficking of alpha-galactosidase resulting from genetic mutations may account for a significant number of Fabry patients. […] We optimized this alpha-galactosidase assay in 1536-well plate format for identification of novel small molecule inhibitors or activators with structures other than the sugar analogs in order to develop new pharmacological chaperones. In particular, this assay is directed towards discovering compounds active in more natural setting, tissue homogenate, that may have been missed by screens of the purified enzyme under more stringent conditions.
NCGC Assay Protocol Summary: This is a fluorogenic enzyme assay with 4-methylumbelliferyl-alpha-D-galactopyranoside as the substrate and human spleen homogenate containing alpha-galactosidase as the enzyme preparation. Upon hydrolysis of this fluorogenic substrate, the resulting product, 4-methylumbelliferone (which excites at 365 nm and emits at 440 nm) can be detected by a fluorescence plate reader. Data were normalized to the controls for basal activity (without enzyme) and 100% activity (with enzyme). The AC50 values were determined from concentration-response data modeled with the standard Hill equation. Assay buffer: 50 mM citric acid (titrated with potassium phosphate to pH 5.0), 0.01% Tween-20 (pH 5.0 is an optimal condition for this enzyme assay) 1536-well assay protocol for the alpha-galactosidase from human spleen homogenate: (1) Add 2 ul/well spleen homogenate (1 ug) (2) Add 23 nL compounds in DMSO solution. The final titration was 0.5 nM to 58 uM. (3) Add 2 ul of substrate (1 mM final) (4) Incubate at 37C for 40 min (5) Add 2 ul stop solution (1M NaOH and 1M Glycine mixture, pH 10) (6) Detect the assay plate in a ViewLux plate reader (PerkinElmer) with Ex=365 nm and Em=440nm. Keywords: Alpha-galactosidase, Fabry Disease, pharmacological chaperone, chaperone therapy, high throughput screening, alpha- galactosidase inhibitor, MLSMR, MLSCN, NIH Roadmap, qHTS and NCGC

Row | SMILES | activity change, negative = inhibition
1 | Cc1ccc(NP(=O)(Oc2ccccc2F)Oc2ccccc2F)nc1 | inactive: 3.39%
2 | CN(C(=O)Cc1ccc(Cl)c(Cl)c1)[C@H]1CCCC[C@@H]1N1CCCC1 | inactive: 2.92% [middle of 10 runs]
3 | CCOP(=O)(Nc1ccccc1)OCC | inactive: 3.68% and inactive: 1.7%
4 | Cc1cc(SC(NC(=O)c2ccc(F)cc2)C(Cl)(Cl)Cl)ncn1 (centres undefined) | inactive: -1.32%
5 | O=P(Nc1nc2ccc(Cl)cc2s1)(c1ccccc1)c1ccccc1 | inactive: 4.9%
6 | O=C(O)c1ccccc1[As](=O)(O)O | inactive: -7.16%
7 | CC(=O)Nc1ccc([As](=O)(O)O)cc1 | inactive: 8.81%
8 | Nc1cccc2ccc([As](=O)(O)O)cc12 | inactive: -1.41%
9 | CCN(N=Nc1nonc1N)c1nonc1N | inactive: 6.59%
10 | Clc1ccc(Cl)c(NC2=NCC(CBr)S2)c1 (centres undefined) | inactive: -4.51%
11 | CN1CCCC(OC(=O)C(c2ccccc2)c2ccccc2)C1 (centres undefined) | inactive: -6.01%
12 | Cc1ccc(OP(=O)(Nc2nccs2)Oc2ccc(C)cc2)cc1 | inactive: 4.53%
13 | COc1ccccc1OP(=O)(Nc1ccc(C)cn1)Oc1ccccc1OC | inactive: 5.35%
14 | Cc1ccc(N/C(=N/P(=O)(N2CCOCC2)N2CCOCC2)N2CCOCC2)cc1 | inactive: -0.552%
15 | NC(=O)c1cc([N+](=O)[O-])cc([N+](=O)[O-])c1N | inactive: -3.15%
16 | Cc1c2non([O-])c-2c(C)[n+](=O)[n+]1[O-] | inactive: -3.91%
17 | O=C(NC(Sc1ccncn1)C(Cl)(Cl)Cl)c1ccccc1 (centres undefined) | inactive: -17.2%
18 | Oc1ccccc1CNc1ccccn1 | inactive: 0.115%
19 | CC(C)CC(=O)NC(Sc1ccc(Cl)cc1)C(Cl)(Cl)Cl (centres undefined) | inactive: -1.31%
20 | Nc1cc(N)c2nonc2c1[N+](=O)[O-] | inactive: 1.84%
21 | CCc1nc2c(n1)c1c(non1O)c1c2no[n+]1[O-] | inactive: 2.71%
22 | O=[N+]([O-])c1cc([N+](=O)[O-])c(CCNc2ccccc2)c([N+](=O)[O-])c1 | inactive: 2.06%
23 | Cc1ccc(NP(=O)(Oc2ccccc2)Oc2ccccc2)nc1 | inactive: 1.48%
24 | O=[N+]([O-])c1cccc2n[nH]nc12 | inactive: -0.985%
25 | CC(=O)N1C2C3N(C(C)=O)C1C1N(C(C)=O)C(C(N1C(C)=O)N3C(C)=O)N2C(C)=O | inactive: -10.1%

Row | SMILES | activity change, negative = inhibition
26 | COc1ccc(C2=NCC(CBr)S2)cc1 (centres undefined) | inactive: -1.43%
27 | CC1CCN(C(=O)Oc2c(Cl)cc(Cl)c3cccnc23)CC1 | inactive: 0.266%
28 | CC(=O)C1=CCCC2CCC1N2 (centres undefined) | inactive: 1.44% and inactive: -7.49%
29 | CN(C)C(=O)OCCc1n(C)cc[n+]1C | inactive: 4.12%
30 | CC(C)=N/N=C(\N)N[N+](=O)[O-] | inactive: -21.1%
31 | CCN(/C(=N/P(=O)(N1CCOCC1)N1CCOCC1)N1CCOCC1)c1ccc(OC)cc1 | inactive: -1.18%
32 | C[N+]1=C2C=CC=CC=C2SC12C([N+](=O)[O-])=CC([N+](=O)[O-])=C[C-]2[N+](=O)[O-] (centres undefined) | inactive: -0.759%
33 | Nc1ccc([As](=O)(O)c2ccc(N)cc2)cc1 | inactive: 12.7%
34 | O=C(Nc1cc([As](=O)(O)O)ccc1O)c1ccccc1 | inactive: -8.5%
35 | O=C(O)CNc1ccc([As](=O)(O)O)cc1 | inactive: -0.395%
36 | O=[N+]([O-])c1cccc(NC2=NCC(CBr)S2)c1 (centres undefined) | inactive: 4.36%
37 | O=[N+]([O-])c1ncn(CCn2ncnc2[N+](=O)[O-])n1 | inactive: -4.39%
38 | CC(C)(C)C(=O)NC(Sc1ccncn1)C(Cl)(Cl)Cl (centres undefined) | inactive: -20.2%
39 | CN(C(=O)Cc1ccccc1)[C@H]1CC[C@@]2(CCCO2)C[C@@H]1N1CCCC1 | inactive: 4.79%
40 | Cc1cc([N+](=O)[O-])cc([N+](=O)[O-])c1O | inactive: 1.28%
41 | C[C@H]1OP(=O)(Oc2ccccc2)[C@H](O)[C@H](O)[C@H]1N=[N+]=[N-] (some centres undefined) | inactive: 1.87%
42 | O=P(Nc1nc2ccccc2s1)(c1ccccc1)c1ccccc1 | inactive: 4.05%
43 | O=P(Nc1ccccn1)(c1ccc(Br)cc1)c1ccc(Br)cc1 | inactive: -0.913%
44 | O=C(OC1CN2CCC1CC2)c1cccc(Cl)c1 (centres undefined) | inactive: -8.52%
45 | Nc1ccc([As](=O)(O)c2ccc([N+](=O)[O-])cc2)cc1 | inactive: 2.76%
46 | C(Cc1nn[nH]n1)Cc1nn[nH]n1 | inactive: -3.58%
47 | O=[As](O)(c1ccccc1)c1ccc(O)cc1 | inactive: 7.67%
48 | O=[N+]([O-])c1ncn(CCn2cnc([N+](=O)[O-])n2)n1 | inactive: -5%
49 | CC(=O)NC(SC(=S)N(C)C)C(Cl)(Cl)Cl (centres undefined) | inactive: -2.52%
